Calls of active or inactive are those of the source. The calls are words filed in the database; no cut-off is given here.
Tests used:
[1] = biological target: Mu-type opioid receptor (Homo sapiens) (UniProt P35372); test: Displacement of [3H]DAMGO from mu opioid receptor (unknown origin) at 10 uM incubated for 180 mins by competitive radioligand binding assay (reference value: […])
[2] = biological target: Mu-type opioid receptor (Homo sapiens) (UniProt P35372); test: Displacement of [3H]DAMGO from mu opioid receptor (unknown origin) at 1 uM incubated for 180 mins by competitive radioligand binding assay (reference value: 1.3 %); settings: filed as agonist
Mus musculus [3] = test: Antinociceptive activity in C57BL/6 mouse assessed as latency of hind-paw response at 100 mg/kg, sc pretreated with naloxone for 15mins followed by compound addition and measured for 30 to 240 mins by hot plate assay; settings: time lower 30.0 min, time upper […]
Mus musculus [4] = test: Antinociceptive activity in C57BL/6 mouse assessed as latency of rapid tail-flick response at 100 mg/kg, sc pretreated with naloxone for 15mins followed by compound addition and measured for 30 to 240 mins by warm-water tail-flick assay; settings: time lower 30.0 min, time upper […]
Mus musculus [5] = test: Effect on locomotor activity in C57BL/6 mouse assessed as impaired motor activity by observing latency to fall at 65 to 80 mg/kg, sc and measured after 15 mins by rotorod test; settings: dose lower […], dose upper 80.0 mg/kg

Amino acid sequences for entries named in this document (tags omitted).
UniProt P35372, whole entry, looked up: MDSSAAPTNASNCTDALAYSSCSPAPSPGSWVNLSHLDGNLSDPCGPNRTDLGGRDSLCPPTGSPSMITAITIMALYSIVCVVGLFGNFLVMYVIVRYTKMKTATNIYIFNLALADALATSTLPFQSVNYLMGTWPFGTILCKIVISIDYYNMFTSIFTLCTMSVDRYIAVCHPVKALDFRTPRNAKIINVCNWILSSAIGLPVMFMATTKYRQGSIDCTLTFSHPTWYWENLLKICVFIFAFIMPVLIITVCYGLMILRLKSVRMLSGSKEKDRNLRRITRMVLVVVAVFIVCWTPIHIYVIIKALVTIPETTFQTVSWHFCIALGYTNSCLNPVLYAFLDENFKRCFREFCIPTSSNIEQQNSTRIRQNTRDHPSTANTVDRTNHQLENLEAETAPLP

## C/C=C1/CN2CC[C@@]34c5cc(C#N)ccc5N(C)[C@]35OC[C@@]4(C(=O)OC)[C@H]1C[C@H]25
[1]; filed as agonist
  Activity: 96.5%
[2]
  Activity: 99.1%

## C/C=C1/CN2CC[C@@]34c5cc(-c6ccccc6)ccc5N(C)[C@]35OC[C@@]4(C(=O)OC)[C@H]1C[C@H]25
[1]; filed as agonist
  Activity: 46.9%
[2]
  Activity: 101%

## C/C=C1/CN2CC[C@@]34c5cc(O)c(-c6ccc(C#N)cc6)cc5N(C)[C@]35OC[C@@]4(C(=O)OC)[C@H]1C[C@H]25
[1]
  Activity: 12.3%
[2]
  Activity: 68.1%

## C/C=C1/CN2CC[C@@]34c5cc(O)c(-c6ccoc6)cc5N(C)[C@]35OC[C@@]4(C(=O)OC)[C@H]1C[C@H]25
[1]
  Activity: 16.1%
[2]
  Activity: 76.1%

## C/C=C1/CN2CC[C@@]34c5cc(I)ccc5N(C)[C@]35OC[C@@]4(C(=O)OC)[C@H]1C[C@H]25
[1]; filed as agonist
  Activity: 67.2%
[2]
  Activity: 98.7%

## C/C=C1/CN2CC[C@@]34c5cc(-c6ccc(OC)cc6)ccc5N(C)[C@]35OC[C@@]4(C(=O)OC)[C@H]1C[C@H]25
[1]; filed as agonist
  Activity: 89.9%
[2]
  Activity: 100%

## C/C=C1/CN2CC[C@]34C(=Nc5ccccc53)[C@@H]2C[C@@H]1[C@@]4(CO)C(=O)OC
[1]; filed as agonist
  Activity: 67.8%
[2]
  Activity: 85%

## C/C=C1/CN2CC[C@@]34c5cc(-c6ccc(C#N)cc6)ccc5N(C)[C@]35OC[C@@]4(C(=O)OC)[C@H]1C[C@H]25
[1]; filed as agonist
  Activity: 63.5%
[2]
  Activity: 98.6%

## C/C=C1/CN2CC[C@@]34c5cc(-c6ccc(F)cc6)ccc5N(C)[C@]35OC[C@@]4(C(=O)OC)[C@H]1C[C@H]25
[1]; filed as agonist
  Activity: 53.9%
[2]
  Activity: 99%

## C/C=C1/CN2CC[C@@]34c5ccccc5N(C)[C@]35OC[C@@]4(CO)[C@H]1C[C@H]25
[1]; filed as agonist
  Activity: 75.2%
[2]
  Activity: 98.4%

## C/C=C1/CN2CC[C@@]34c5cc(O)c(-c6ccccc6)cc5N(C)[C@]35OC[C@@]4(C(=O)OC)[C@H]1C[C@H]25
[1]
  Activity: 14.2%
[2]
  Activity: 70.4%

## C/C=C1/CN2CC[C@@]34c5cc(O)c(-c6ccc(F)cc6)cc5N(C)[C@]35OC[C@@]4(C(=O)OC)[C@H]1C[C@H]25
[1]
  Activity: 10.7%
[2]
  Activity: 63.4%

## C/C=C1/CN2CC[C@@]34c5cc(OC(C)=O)ccc5N(C)[C@]35OC[C@@]4(C(=O)OC)[C@H]1C[C@H]25
[1]; filed as agonist
  Activity: 54.1%
[2]
  Activity: 93.9%

## C/C=C1/CN2CC[C@@]34c5cc(O)c(-c6ccc(OC)cc6)cc5N(C)[C@]35OC[C@@]4(C(=O)OC)[C@H]1C[C@H]25
[1]
  Activity: 20.4%
[2]
  Activity: 81.4%

## C/C=C1/CN2CC[C@@]34c5cc(O)c(-c6ccc(C)cc6)cc5N(C)[C@]35OC[C@@]4(C(=O)OC)[C@H]1C[C@H]25
[1]
  Activity: 9.7%
[2]
  Activity: 63.8%

## C/C=C1/CN2CC[C@@]34c5cc(-c6ccc(C)cc6)ccc5N(C)[C@]35OC[C@@]4(C(=O)OC)[C@H]1C[C@H]25
[1]; filed as agonist
  Activity: 71.1%
[2]
  Activity: 103%

## C/C=C1\CN2CC[C@@]34c5ccccc5N(CCc5ccccc5)[C@]35OC[C@@]4(C(=O)OC)[C@H]1C[C@H]25
Mus musculus [3]
  Activity: inactive
Mus musculus [4]
  Activity: inactive
Mus musculus [5]
  Activity: Active

## C/C=C1/CN2CC[C@@]34c5cc(-c6ccoc6)ccc5N(C)[C@]35OC[C@@]4(C(=O)OC)[C@H]1C[C@H]25
[1]
  Activity: 36.9%
[2]
  Activity: 97.6%

## C/C=C1/CN2CC[C@@]34c5cc(Br)ccc5N(C)[C@]35OC[C@@]4(C(=O)OC)[C@H]1C[C@H]25
[1]; filed as agonist
  Activity: 51.6%
[2]
  Activity: 84.8%

## C/C=C1/CN2CC[C@@]34c5cc(OC)ccc5N(C)[C@]35OC[C@@]4(C(=O)OC)[C@H]1C[C@H]25
[1]; filed as agonist
  Activity: 64.6%
[2]
  Activity: 90.5%

— ChEMBL document CHEMBL5247645, “Modified Akuamma Alkaloids with Increased Potency at the Mu-opioid Receptor” (2023)
